Usually IC50 stands for the midpoint of a concentration-inhibition curve. A low value points to higher potency.

The chains behind the UniProt entries cited, without tags or fusion partners.
UniProt Q9NWZ3, whole entry, species assumed: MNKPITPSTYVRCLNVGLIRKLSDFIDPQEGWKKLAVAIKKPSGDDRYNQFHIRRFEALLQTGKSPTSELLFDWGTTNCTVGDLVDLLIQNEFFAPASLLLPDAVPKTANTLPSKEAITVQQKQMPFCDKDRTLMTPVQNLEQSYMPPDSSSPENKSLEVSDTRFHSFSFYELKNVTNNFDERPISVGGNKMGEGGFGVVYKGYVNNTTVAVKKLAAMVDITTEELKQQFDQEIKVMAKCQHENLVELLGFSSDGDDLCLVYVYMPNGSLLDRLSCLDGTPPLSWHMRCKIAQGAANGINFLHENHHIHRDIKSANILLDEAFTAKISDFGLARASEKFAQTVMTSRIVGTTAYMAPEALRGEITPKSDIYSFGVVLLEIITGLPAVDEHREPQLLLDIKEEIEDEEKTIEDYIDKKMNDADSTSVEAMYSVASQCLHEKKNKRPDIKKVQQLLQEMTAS

Each structure is given as a SMILES string.

The record followed here is patent publication US10246456B2, “IRAK4 inhibiting agents” (BIOGEN MA INC., priority 2014, dated 2019).

In this experiment the target is IRAK4 (Homo sapiens (Human), UniProt Q9NWZ3). Briefly: IRAK-4 AlphaScreen biochemical kinase assay. As to conditions: IC50, 1 nM IRAK4, 1 mM ATP, 3.5 h at RT. Here is the method:
The biochemical assay is in a AlphaScreen format. The kinase reaction is based on the IRAK-4 phosphorylation of a biotin labeled peptide. The phosphopeptide is incubated with anti-phosphothreonine antibody as well as streptavidin- and protein A-coated beads. Binding of the protein-A coated beads to the antibody and the streptavidin beads to the peptide, leads to an energy transfer from one bead to the other, ultimately producing a luminescent/fluorescent signal.
Generally, the kinase reaction is carried out at 1 nM IRAK4, 1.6 μM peptide, 1 mM ATP in reaction buffer 50 mM Hepes, 60 mM NaCl, 5 mM MgCl2, 0.25 mM MnCl2, 2 mM DTT, 0.01% BSA, 0.01% Tween-20) for 3.5 h at RT.

Regarding `CN(C)C(=O)c1cccc(-n2ncc3ccc(-c4cncc(N)c4)cc32)n1` [Example 64, 6-(6-(5-aminopyridin-3-yl)-1H-indazol-1-yl)-N,N-dimethylpicolinamide], the half-inhibitory concentration (IC50) is 100 to 1000 nM.
